Results on one compound are retold here after ChEMBL document CHEMBL2069172, “Transition state analogue inhibitors of human methylthioadenosine phosphorylase and bacterial methylthioadenosine/S-adenosylhomocysteine nucleosidase incorporating acyclic ribooxacarbenium ion mimics” (Bioorg Med Chem, 2012).

One may read the Ki as the dissociation constant of the complex between target and ligand, obtained from inhibition or displacement.

A short description of the assay: Inhibition of Escherichia coli MTAN assessed as reduction in methylthioadenosine phosphorolysis/hydrolysis.

Turning to `CSC[C@H]1CN(Cc2c[nH]c3c(N)ncnc23)C[C@@H]1O`, the Ki came out at 2 pM.
